Experimental data reported in patent US20260167742A1, “METHOD FOR TREATING GASTRIC CANCER BY COMBINING ANTI-HER2 ANTIBODY AND CHEMOTHERAPEUTIC AGENT, AND USE” (SHANGHAI HENLIUS BIOTECH, INC., priority 2023, published 2026).

Tests used:
[1] = system: gastric cancer cells NCI-N87; test: HER2 internalization (endocytosis) assay, pHrodo Green staining, flow cytometry; format: cell-based, human; details: 10 μg/mL
Protocol: (§1) A HER2 internalization assay was performed using pHrodoiFL Green STP ester amine reactive dye (P35369, Invitrogen). […] After a short wash with a wash buffer to remove unbound antibodies, one group of cells was placed on ice for freezing to stop internalization, and the remaining cells were placed in a 37° C. incubator for further incubation. After the co-incubation with the antibody, the cells were fixed with a fixation buffer (420801, Biolegend) for 30 min. Finally, all stained cells were washed with a staining buffer and analyzed on the CytoFLEX LX flow cytometer (Beckman Coulter, USA).

[2] = system: gastric cancer cells SNU216; test: as above; format: cell-based, human; details: 10 μg/mL
Protocol: as §1

“trastuzumab: anti-HER2 antibody, heavy chain SEQ ID NO: 11, light chain SEQ ID NO: 12; or biosimilar, trade name Hanquyou” was tested, and the “HER2 internalization (endocytosis)” value [1] was “weak endocytosis” and the “HER2 internalization (endocytosis)” value [2] was “weak endocytosis”.
